According to patent publication US20260207717A1, “METHODS FOR TREATING INFANTILE-ONSET POMPE DISEASE IN PEDIATRIC PATIENTS” (Amicus Therapeutics, Inc., priority 2022, published 2026):

How the values were obtained:
[1] = biological target: cellular receptors on normal and Pompe fibroblast cell lines (UniProt P11717)
[2] = biological target: cellular receptors on normal and Pompe fibroblast cell lines (UniProt P11717); experiment: cell-based or functional assay
[3] = biological target: cation-independent mannose-6-phosphate receptor (CIMPR), immobilised on an affinity column or coated on plates; experiment: M6P receptor (CIMPR) plate binding assay
[4] = biological target: cation-independent mannose-6-phosphate receptor (CIMPR), immobilised on an affinity column or coated on plates; experiment: CIMPR affinity column, same condition as for MYOZYME and LUMIZYME (FIG. 5)
[5] = biological target: cation-independent mannose-6-phosphate receptor (CIMPR), immobilised on an affinity column or coated on plates; experiment: CIMPR affinity chromatography of purified ATB200 from different production batches (FIG. 5)
[6] = biological target: cation-independent mannose-6-phosphate receptor (CIMPR), immobilised on an affinity column or coated on plates; experiment: CIMPR affinity chromatography of ATB200 rhGAA made with AEX capture (Embodiment 2). This is the flow-through peak before M6P was added. Fractions were read as GAA activity (F460).
[7] = biological target: cation-independent mannose-6-phosphate receptor (CIMPR), immobilised on an affinity column or coated on plates; experiment: CIMPR affinity chromatography of ATB200 rhGAA made without AEX capture (Embodiment 1). This is the flow-through peak before M6P was added. Fractions were read as GAA activity (F460).
[8] = biological target: cation-independent mannose-6-phosphate receptor (CIMPR), immobilised on an affinity column or coated on plates; experiment: CIMPR affinity chromatography of ATB200 rhGAA made with AEX capture (Embodiment 2). Bound material was eluted with free M6P (gradient to about 1 mM, then a step to about 5 mM). Fractions were read as GAA activity (F460).
[9] = biological target: cation-independent mannose-6-phosphate receptor (CIMPR), immobilised on an affinity column or coated on plates; experiment: CIMPR affinity chromatography of ATB200 rhGAA made without AEX capture (Embodiment 1). Bound material was eluted with free M6P (gradient to about 1 mM, then a step to about 5 mM). Fractions were read as GAA activity (F460).
[10] = biological target: cation-independent mannose-6-phosphate receptor (CIMPR), immobilised on an affinity column or coated on plates; experiment: CIMPR affinity column, flow through against M6P-eluted fraction, by GAA activity

Kuptake, Pompe fibroblasts [1]	Kuptake, normal fibroblasts [1]	concentration that saturates cellular receptors (uptake into fibroblasts, internalized GAA activity) [2]	Kd [3]	percent of rhGAA bound [4]	CIMPR receptor binding (percent of rhGAA bound) [5]	percent of total GAA activity in the flow-through (not bound to the CIMPR column) [6]	percent of total GAA activity in the flow-through (not bound to the CIMPR column) [7]	percent of total GAA activity bound to the CIMPR column and eluted with M6P [8]	percent of total GAA activity bound to the CIMPR column and eluted with M6P [9]	uptake efficiency constant (Kuptake) [2]	percent of rhGAA that did not bind [10]	percent of rhGAA with M6P that can target it to the CIMPR (bound fraction) [10]	Substance
3 nM	2 nM	20 nM	2 to 4 nM	> 70%	> 70%	8%	30%	92%	70%				ATB200 recombinant human acid α-glucosidase (rhGAA) (from UniProt P10253 70-952) (enzyme)
57 nM	56 nM	250 nM								56 nM	78%	22%	LUMIZYME® (alglucosidase alfa, conventional rhGAA product) (from UniProt P10253 57-952) (enzyme)
											73%	27%	MYOZYME® (alglucosidase alfa, conventional rhGAA product) (from UniProt P10253 57-952) (enzyme)
